Measured values: patent US10196396B2 (priority 2016, dated 2019)

Protein sequences, listed by entry. Tags and fused reporters are not part of them.
UniProt P30542, whole entry: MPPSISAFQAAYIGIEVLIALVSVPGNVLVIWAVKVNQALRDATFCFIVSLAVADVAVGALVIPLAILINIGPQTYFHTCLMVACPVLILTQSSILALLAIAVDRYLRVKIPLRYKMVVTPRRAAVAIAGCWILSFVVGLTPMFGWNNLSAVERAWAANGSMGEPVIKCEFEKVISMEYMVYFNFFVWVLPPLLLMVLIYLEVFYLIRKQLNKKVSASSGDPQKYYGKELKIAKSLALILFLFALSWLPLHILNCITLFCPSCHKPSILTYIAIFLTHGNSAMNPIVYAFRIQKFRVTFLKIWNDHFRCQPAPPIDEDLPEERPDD

Assays:
[1] = molecular target: human A1 adenosine receptor (Homo sapiens (Human), UniProt P30542); assay: biochemical
[2] = molecular target: human A2a adenosine receptor (Homo sapiens (Human), UniProt P29274); assay: biochemical

SMILES	Ki [1]	Ki [2]
O[C@@H]1[C@H](O)CS[C@H]1c1nnc2c(NCc3ccccc3I)nccn12 [Compound 62, (2S,3R,4S)-2-(8-((2-iodobenzyl)amino)-[1,2,4]triazolo[4,3-a]pyrazin-3-yl)tetrahydrothiophene-3,4-diol]	> 10 µM	> 10 µM
O[C@@H]1[C@H](O)CS[C@H]1c1cnc2c(NCCc3ccccc3F)nccn12 [Compound 169, (2S,3R,4S)-2-(8-((2-fluorophenethyl)amino)imidazo[1,2-a]pyrazin-3-yl)tetrahydrothiophene-3,4-diol]	> 10 µM	> 10 µM
O[C@@H]1[C@H](O)CO[C@H]1c1nnc2c(NCc3cccc(Cl)c3)nccn12 [Compound 35, (2S,3R,4R)-2-(8-((3-chlorobenzyl)amino)-[1,2,4]triazolo[4,3-a]pyrazin-3-yl)tetrahydrofuran-3,4-diol]	> 10 µM	> 10 µM
O[C@@H]1[C@H](O)CS[C@H]1c1nnc2c(NCc3cccc(Br)c3)nccn12 [Compound 17, (2S,3R,4S)-2-(8-((3-bromobenzyl)amino)-[1,2,4]triazolo[4,3-a]pyrazin-3-yl)tetrahydrothiophene-3,4-diol]	> 10 µM	> 10 µM
CNC(=O)c1ccc(CNc2nccn3c([C@@H]4SC[C@@H](O)[C@H]4O)cnc23)cc1F [Compound 125, 4-(((3-((2S,3R,4S)-3,4-dihydroxytetrahydrothiophen-2-yl)imidazo[1,2-a]pyrazin-8-yl)amino)methyl)-2-fluoro-N-methylbenzamide]	> 10 µM	> 10 µM
C[C@@H](Nc1nccn2c([C@@H]3SC[C@@H](O)[C@H]3O)nnc12)c1cccc(Cl)c1 [Compound 46, (2S,3R,4S)-2-(8-(((R)-1-(3-chlorophenyl)ethyl)amino)-[1,2,4]triazolo[4,3-a]pyrazin-3-yl)tetrahydrothiophene-3,4-diol]	> 10 µM	> 10 µM
O[C@@H]1[C@H](O)CS[C@H]1c1nnc2c(NCc3cc(Cl)cc(Cl)c3)nccn12 [Compound 55, (2S,3R,4S)-2-(8-((3,5-dichlorobenzyl)amino)-[1,2,4]triazolo[4,3-a]pyrazin-3-yl)tetrahydrothiophene-3,4-diol]	> 10 µM	> 10 µM
O[C@@H]1[C@H](O)CS[C@H]1c1cnc2c(NCc3ccccc3I)nccn12 [Compound 168, (2S,3R,4S)-2-(8-((2-iodobenzyl)amino)imidazo[1,2-a]pyrazin-3-yl)tetrahydrothiophene-3,4-diol]	> 10 µM	> 10 µM
O[C@@H]1[C@H](O)CS[C@H]1c1cnc2c(NCc3cc(Cl)cc(Cl)c3)nccn12 [Compound 184, (2S,3R,4S)-2-(8-((3,5-dichlorobenzyl)amino)imidazo[1,2-a]pyrazin-3-yl)tetrahydrothiophene-3,4-diol]	> 10 µM	1 to 10 µM
C[C@@H](Nc1nccn2c([C@@H]3SC[C@@H](O)[C@H]3O)cnc12)c1cccc(Cl)c1 [Compound 160, (2S,3R,4S)-2-(8-(((R)-1-(3-chlorophenyl)ethyl)amino)imidazo[1,2-a]pyrazin-3-yl)tetrahydrothiophene-3,4-diol]	> 10 µM	1 to 10 µM
O=S(=O)(Nc1nccn2c([C@@H]3SC[C@@H](O)[C@H]3O)cnc12)c1cccc(Cl)c1 [Compound 167, 3-chloro-N-(3-((2S,3R,4S)-3,4-dihydroxytetrahydrothiophen-2-yl)imidazo[1,2-a]pyrazin-8-yl)benzenesulfonamide]	> 10 µM	> 10 µM
O[C@@H]1[C@H](O)CS[C@H]1c1nnc2c(N[C@H]3C[C@@H]3c3ccccc3)nccn12 [Compound 43, (2S,3R,4S)-2-(8-(((1S,2R)-2-phenylcyclopropyl)amino)-[1,2,4]triazolo[4,3-a]pyrazin-3-yl)tetrahydrothiophene-3,4-diol]	> 10 µM	> 10 µM
O[C@@H]1[C@H](O)CS[C@H]1c1nnc2c(NCc3ccccc3)nccn12 [Compound 5, (2S,3R,4S)-2-(8-(benzylamino)-[1,2,4]triazolo[4,3-a]pyrazin-3-yl)tetrahydrothiophene-3,4-diol]	> 10 µM	> 10 µM
